From US20220304953A1, “PHARMACEUTICAL DOSAGE FORM COMPRISING METFORMIN AND CALCIUM CITRATE” (DSM IP ASSETS B.V., priority 2019, published 2022)
Where two headings read alike, the source gives them in different places.

Settings: 37° C., 24 h; for Ca2+ ions: single determination

For anhydrous calcium citrate, the “Ca2+ ions, average” value (SGF (pH=1.1)) was 2.7 mg/mL, the “Ca2+ ions” value (SGF (pH=1.1)) was 2.7 mg/mL and the “Ca2+ ions, average” value (SIF (pH=6.8)) was 0.460 mg/mL. The “Ca2+ ions” value (SIF (pH=6.8)) was 0.460 mg/mL, the “Ca2+ ions, average” value (water) was 0.2000 mg/mL and the “Ca2+ ions” value (water) was 0.2000 mg/mL.
